The target of the assay is MnSOD-3WT (C. elegans MnSOD-3, manganese superoxide dismutase) (Caenorhabditis elegans, UniProt P41977). In words: […] GHz HFEPR and visible absorption spectroscopy. The following applies: substrate analog binding at active-site Mn; 50 mM azide for HFEPR (Mn(II), partial binding), 100 mM azide for absorption (Mn(III), 10 mM Tris.Cl pH 8.0).

Sequences of proteins named here, by UniProt entry; tags and fusion partners are left off. Residues count along the entry.
UniProt P41977, 25-218 limits assumed: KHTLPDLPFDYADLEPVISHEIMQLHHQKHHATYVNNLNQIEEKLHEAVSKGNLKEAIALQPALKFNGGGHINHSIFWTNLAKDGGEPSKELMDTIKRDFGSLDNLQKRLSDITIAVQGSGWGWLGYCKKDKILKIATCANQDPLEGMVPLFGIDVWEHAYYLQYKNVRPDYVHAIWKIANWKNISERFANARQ

On to `[N-]=[N+]=N`, for which the “285 GHz HFEPR and visible absorption spectroscopy” value is reported as “azide binding to MnSOD was only partial resulting in a mixture of azide-free penta-coordinated centers”.
